Experimental data: ChEMBL document CHEMBL1127295, “Development of a model for the delta opioid receptor pharmacophore. 2. Conformationally restricted Phe3 replacements in the cyclic delta receptor selective tetrapeptide Tyr-c[D-Cys-Phe-D-Pen]OH (JOM-13)” (J Med Chem, 1994)

Amino acid sequences for entries named in this document (tags omitted).
UniProt P97266, whole entry: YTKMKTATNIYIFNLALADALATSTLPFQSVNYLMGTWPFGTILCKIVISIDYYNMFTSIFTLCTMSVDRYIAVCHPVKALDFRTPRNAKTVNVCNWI

Legend:
Mu-type opioid receptor [1] = target: T1, Mu-type opioid receptor (Cavia porcellus, UniProt P97266); experiment: Agonist activity was assessed in an guinea pig ileum (GPI) smooth muscle bioassay; format: functional, tissue-based
Mu-type opioid receptor [2] = target: T1, Mu-type opioid receptor; experiment: Binding affinity against mu opioid receptor using [3H]DAMGO in guinea pig ileum; format: tissue-based

Row | Structure (SMILES) | IC50 (Mu-type opioid receptor [1]) [µM] | Ki (Mu-type opioid receptor [2]) [µM]
1 | CC1(C)SSC[C@H](NC(=O)[C@@H](N)Cc2ccc(O)cc2)C(=O)N[C@H](Cc2ccccc2)C(=O)N[C@@H]1C(=O)O (stereo in doubt; 3) | 3.73 | 1
2 | CC1(C)SSC[C@H](NC(=O)[C@@H](N)Cc2ccc(O)cc2)C(=O)N[C@H](Cc2ccccc2)C(=O)N[C@@H]1C(=O)O (stereo in doubt; 4) | > 30 | > 10
3 | CC1(C)SSC[C@H](NC(=O)[C@@H](N)Cc2ccc(O)cc2)C(=O)N[C@H](Cc2ccccc2)C(=O)N[C@@H]1C(=O)O (stereo in doubt; 5) | 0.755 | 0.259
4 | CC1(C)SSC[C@H](NC(=O)[C@@H](N)Cc2ccc(O)cc2)C(=O)N[C@H](Cc2ccccc2)C(=O)N[C@@H]1C(=O)O (stereo in doubt; 6) |  | 2.53
